Values belong to the binder of their own block, whether it stands above or below them.
What was measured:
[1] = target: T1, pathological tau structures in other tauopathies (FTLD, Pick's disease, PSP, PART) (human (endogenous in brain tissue), UniProt P10636); assay: immunostaining of cells or tissue; immunohistochemistry on 5 μm formalin-fixed paraffin sections of human brain, WITH heat pretreatment (10 mM sodium citrate pH 6.0, autoclave 20 min at 130 °C); primary antibody overnight at 4 °C (0.1 μg/ml in Fig. 3); settings: one partner purified
T1 construct: human tau in aggregates of tauopathy brains; also called pathological tau structures in all these diseases; source: endogenous, post-mortem human brain tissue of FTLD, Pick's disease, PSP and PART cases

[2] = target: T2, physiological tau of control human brain (human (endogenous in brain tissue), UniProt P10636); assay: as above; settings: one partner purified
T2 construct: human tau in neurons of control brain tissue; source: endogenous, human control brain, formalin-fixed paraffin sections of the hippocampal region

[3] = target: T3, pathological tau of Alzheimer's disease brain (PHF-tau) (human (endogenous in brain tissue), UniProt P10636); assay: as above; settings: one partner purified
T3 construct: human tau as it lies in aggregates of AD brain; A mixture of brain tau isoforms in aggregated form; also called PHFs; aggregated tau in neuropil threads and NFTs; source: endogenous, human AD brain: immunopurified PHF and sarkosyl-insoluble fraction of brain lysates (Western blot); formalin-fixed paraffin sections (immunohistochemistry); pooled brain homogenate (immunodepletion)

tau peptide A8119 = target: T4, tau peptide A8119 (Homo sapiens); assay: crystal structure; Fab (20 mM HEPES pH 7.5, 7.55 mM NaCl) incubated with 4 mM peptide on ice overnight; sitting drop vapor diffusion; settings: both partners purified
T4 construct: source: synthetic peptide (Pepscan BV or New England Peptide)
T4 chain: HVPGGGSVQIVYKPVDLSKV

tau peptide A7731 = target: T5, tau peptide A7731 (Homo sapiens); assay: as above; settings: both partners purified
T5 construct: source: synthetic peptide (Pepscan BV or New England Peptide)

tau peptide A6897 = target: T6, tau peptide A6897 (human, biotin); assay: BLI; Octet Red 384; biotinylated tau peptides immobilised on streptavidin biosensors; 100 nM antibody in solution; buffers of different ionic strength with 10% ForteBio kinetics buffer; qualitative association and dissociation curves; settings: both partners purified
T6 construct: numbers count on: 2N4R tau (tau441); source: synthetic peptide

tau peptide A6940 = target: T7, tau peptide A6940 (human, biotin); assay: as above; settings: both partners purified
T7 construct: tau, human, residues 42-103; numbers count on: 2N4R tau (tau441); also called residues 42-103; source: synthetic peptide
T7 chain: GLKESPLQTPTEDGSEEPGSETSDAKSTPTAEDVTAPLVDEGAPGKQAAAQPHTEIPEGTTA

B2: dmCBTAU-28.1 (human IgG1), CBTAU-28.1 double mutant Ser32 to Arg / Glu35 to Lys (antibody, V domains shown)
VH: QVQLQQSGAEVKKPGESLKISCEASGYSFTNYWIGWVRQMPGKGLEWMGIIYPGDSDTRYSPPFQGQVTITADRSITTAYLEWSSLKASDTAMYYCARVGRPSKGGWFDPWGQGTLVTVSS
VL: DIQMTQSPDSLAVSLGERATINCESSQTLLYRSNKKNYLAWYQQKPGQPPKLLISWASTPESGVPDRFSGSGSGTSFTLTISSLQAEDVAVYYCQQYYNSPYTFGQGTRLEIK
- binding result [1]: binds
- binding result [2]: binds
- binding result [3]: binds

B4: dmCBTAU-28.1 Fab (Fab, V domains shown)
VH: B2 VH
VL: B2 VL
- binding result (tau peptide A7731): binds

B6: dmCBTAU-28.1 (antibody, V domains shown)
VH: B2 VH
VL: B2 VL
- binding result (tau peptide A6940): binds

Now from value to binder:

- binding result [1]: binds
- binding result [2]: binds
- binding result [3]: binds
B1: dmCBTAU-27.1 (human IgG1), CBTAU-27.1 double mutant Ser27D to Tyr / Thr94 to Ile (antibody, V domains shown)
VH: QVQLVESGPEMRKPGESLKISCKTSGYIFSDYWTAWVRQLPGKGLQWMGIIYSGDSDTRYHPSVQGHVTMSTDSSLTTAYLQWSSLKASDTGIYYCARLDARVDAGWQLDSWGQGTLVTVSS
VL: IQLTQSPDSLAVSLGERATINCKSSQSVFYRDNNKNYLAWYQHKSGQPPKLLFFWASSRESGVSDRFSGSGSGTDFTLTIDNLQAEDVALYYCQHYFNIPHNFGQGTKLEIK

- binding result (tau peptide A8119): binds
B3: dmCBTAU-27.1 Fab (Fab, V domains shown)
VH: B1 VH
VL: B1 VL

- binding result (tau peptide A6897): binds
B5: dmCBTAU-27.1 (antibody, V domains shown)
VH: B1 VH
VL: B1 VL

— paper PMC5984341 (Acta Neuropathologica Communications, 2018)
